In ChEMBL document CHEMBL1130381, “Synthesis and evaluation of trimetoquinol derivatives: novel thromboxane A2/prostaglandin H2 antagonists with diminished beta-adrenergic agonist activity” (J Med Chem, 1997):

Species on record: Homo sapiens
Assay: Potency ratio of human platelet aggregation
Type: functional

SMILES	Potency ratio
O=[N+]([O-])c1cc(CC2NCCc3cc(O)c(O)cc32)ccc1O (stereo not drawn)	0.91
Nc1ccc(CC2NCCc3cc(O)c(O)cc32)cc1 (stereo not drawn)	0.00891
O=[N+]([O-])c1ccc(CC2NCCc3cc(O)c(O)cc32)cc1 (stereo not drawn)	0.0257
